Results reported in patent US7122651B1, “Nucleic acid molecules encoding opioid growth factor receptors” (priority 1998, dated 2006).

What was measured:
[1] = molecular target: T1, nuclear homogenates of human pancreatic tumor cells (PANC-1) (Homo sapiens, UniProt Q9NZT2); experiment: Competition for binding of [^3H]-[Met^5]-enkephalin in PANC-1 nuclear homogenates; settings: read-out: competition value (IC50); 1 or 2 nM [^3H][Met^5]-enkephalin
T1 construct: host or cells: PANC-1; nuclear (P1) homogenates, and P2, P3 and S3 fractions in the fractionation study
T1 sequence (Q9NZT2 1-677): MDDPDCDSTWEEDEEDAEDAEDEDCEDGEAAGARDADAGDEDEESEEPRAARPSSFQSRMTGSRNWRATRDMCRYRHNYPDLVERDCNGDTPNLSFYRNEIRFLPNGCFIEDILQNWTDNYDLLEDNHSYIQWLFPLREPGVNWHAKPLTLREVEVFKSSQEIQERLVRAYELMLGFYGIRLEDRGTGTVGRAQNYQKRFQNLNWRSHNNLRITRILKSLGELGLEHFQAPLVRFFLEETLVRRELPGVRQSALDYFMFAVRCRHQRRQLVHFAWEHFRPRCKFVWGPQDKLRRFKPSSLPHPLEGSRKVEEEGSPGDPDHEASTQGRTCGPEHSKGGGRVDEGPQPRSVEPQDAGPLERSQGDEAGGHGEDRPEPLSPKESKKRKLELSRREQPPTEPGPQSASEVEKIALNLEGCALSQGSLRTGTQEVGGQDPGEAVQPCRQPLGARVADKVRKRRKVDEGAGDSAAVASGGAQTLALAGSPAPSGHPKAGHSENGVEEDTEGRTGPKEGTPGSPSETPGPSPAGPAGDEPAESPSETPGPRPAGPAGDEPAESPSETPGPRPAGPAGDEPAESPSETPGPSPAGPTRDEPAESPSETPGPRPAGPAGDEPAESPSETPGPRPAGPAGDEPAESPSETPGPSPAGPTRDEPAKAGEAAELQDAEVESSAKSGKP

[2] = molecular target: T2, PANC-1 nuclear (P1) homogenates (Homo sapiens, UniProt Q9NZT2); experiment: Binding of [^3H]-[Met^5]-enkephalin to PANC-1 nuclear homogenates (saturation and characterization)
T2 construct: host or cells: PANC-1; nuclear (P1) homogenates, and P2, P3 and S3 fractions in the fractionation study
T2 sequence (Q9NZT2 1-677): T1 sequence (Q9NZT2 1-677)

[3] = molecular target: normal human pancreas (Homo sapiens, UniProt Q9NZT2); settings: read-out: mean Kd; 3 normal specimens
[4] = molecular target: MIA PaCA-2 nuclear fraction (Homo sapiens, UniProt Q9NZT2); settings: MIA PaCA-2, log phase
[5] = molecular target: PANC-1 subcellular fractions (P1, P2, P3, S3) (Homo sapiens, UniProt Q9NZT2); settings: P1 fraction, Nuclear
[6] = molecular target: SCCHN enriched nuclear preparations (Homo sapiens, UniProt Q9NZT2); settings: read-out: Specific affinity (kα); neoplastic tissues
[7] = molecular target: Capan-1 nuclear fraction (Homo sapiens, UniProt Q9NZT2); settings: Capan-1, log phase
[8] = molecular target: human pancreatic cancer tissue (Homo sapiens, UniProt Q9NZT2); settings: read-out: mean Kd; specimens from 3 patients
[9] = molecular target: Xenografts of Capan-1 growing in nude mice (Homo sapiens, UniProt Q9NZT2); settings: Capan-1 xenograft, harvested 40 days after inoculation
[10] = molecular target: normal mucosa enriched nuclear preparations (Homo sapiens, UniProt Q9NZT2); settings: read-out: Specific affinity (kα); normal tissues

Row | Substance | IC50 [1] [nM] | Kd ([2]; PANC-1, Table IV, at least 3 independent assays) [nM] | Kd ([2]; PANC-1 Confluent, 5 days in culture) [nM] | Kd ([2]; PANC-1 Log phase, 3 days in culture) [nM] | Kd ([2]; PANC-1 Post-confluent, 7–8 days in culture) [nM] | Kd [3] [nM] | Kd [4] [nM] | Kd [5] [nM] | Kd [6] [nM] | Kd [7] [nM] | Kd [8] [nM] | Kd [9] [nM] | Kd [10] [nM]
1 | [Met^5]-enkephalin | 5.5 |  |  |  |  |  |  |  |  |  |  |  | 
2 | [^3H]-[Met^5]-enkephalin |  | 5.1 ± 1.4 | 5.3 | 4.2 ± 2.1 | 13.1 ± 1.1 | 9.6 ± 2.9 | 10.8 ± 5.5 | 2.3 ± 0.5 | 4.1 ± 0.4 | 6.5 ± 4.1 | 2.1 ± 1 | 2.9 ± 1.5 | 11.6 ± 2.5
